The values that follow come from patent US9120756B2, “Substituted phenylureas and phenylamides as vanilloid receptor ligands” (Gruenenthal GmbH, priority 2009, dated 2015).

Protein sequences, listed by entry. Tags and fused reporters are not part of them.
UniProt O35433, whole entry: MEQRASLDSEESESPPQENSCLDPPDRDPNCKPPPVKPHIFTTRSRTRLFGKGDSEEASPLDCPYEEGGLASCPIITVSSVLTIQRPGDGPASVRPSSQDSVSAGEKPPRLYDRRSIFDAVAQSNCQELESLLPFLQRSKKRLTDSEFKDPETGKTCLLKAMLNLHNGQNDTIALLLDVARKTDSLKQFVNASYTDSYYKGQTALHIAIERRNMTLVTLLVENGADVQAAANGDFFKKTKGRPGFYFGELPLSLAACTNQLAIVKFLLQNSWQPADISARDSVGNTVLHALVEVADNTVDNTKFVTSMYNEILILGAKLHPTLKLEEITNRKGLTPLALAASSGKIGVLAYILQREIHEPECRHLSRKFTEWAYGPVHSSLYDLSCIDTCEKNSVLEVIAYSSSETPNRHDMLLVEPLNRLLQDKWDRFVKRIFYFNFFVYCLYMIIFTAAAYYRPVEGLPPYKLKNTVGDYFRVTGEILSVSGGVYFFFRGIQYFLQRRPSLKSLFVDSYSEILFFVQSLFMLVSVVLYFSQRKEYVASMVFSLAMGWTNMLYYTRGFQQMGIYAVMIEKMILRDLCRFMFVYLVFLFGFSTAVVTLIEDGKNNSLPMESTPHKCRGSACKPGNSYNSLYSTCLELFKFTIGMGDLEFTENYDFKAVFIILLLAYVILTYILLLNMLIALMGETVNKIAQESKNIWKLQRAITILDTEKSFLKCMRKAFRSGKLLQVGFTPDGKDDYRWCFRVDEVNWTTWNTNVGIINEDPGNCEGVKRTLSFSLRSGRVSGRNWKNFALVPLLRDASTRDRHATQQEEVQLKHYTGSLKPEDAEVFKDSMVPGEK

In the assay the target is rat-species vanilloid receptor 1 (VR1/TRPV1) (Rattus norvegicus (Rat), UniProt O35433). Nature of the assay: FLIPR Ca2+ influx assay on rat dorsal root ganglia cells, capsaicin stimulus (method I). The format is cell-based. The following applies: capsaicin (Cap). On the procedure:
The agonistic or antagonistic effect of the substances to be tested on the rat-species vanilloid receptor 1 (VR1/TRPV1) can be determined using the following assay. In this assay, the influx of Ca^2+ through the receptor channel is quantified with the aid of a Ca^2+-sensitive dye (type Fluo-4, Molecular Probes Europe BV, Leiden, the Netherlands) in a fluorescent imaging plate reader (FLIPR, Molecular Devices, Sunnyvale, USA).
Complete medium: 50 ml HAMS F12 nutrient mixture (Gibco Invitrogen GmbH, Karlsruhe, Germany) with
10% by volume of FCS (foetal calf serum, Gibco Invitrogen GmbH, Karlsruhe, Germany, heat-inactivated);
2 mM L-glutamine (Sigma, Munich, Germany);
1% by weight of AA solution (antibiotic/antimyotic solution, PAA, Pasching, Austria) and 25 ng/ml NGF medium (2.5 S, Gibco Invitrogen GmbH, Karlsruhe, Germany) […]
The vertebral column is removed from decapitated rats and placed immediately into cold HBSS buffer (Hank's buffered saline solution, Gibco Invitrogen GmbH, Karlsruhe, Germany), i.e. buffer located in an ice bath, mixed with 1% by volume (percent by volume) of an AA solution (antibiotic/antimyotic solution, PAA, Pasching, Austria). […] The resulting pellet is respectively taken up in 250 μL of complete medium and the cell count is determined. […]

The Ki is the equilibrium dissociation constant of an inhibitor or competing ligand from its target. A lower Ki goes with tighter binding. In the case of `CC(C(=O)NCc1cc(C(C)(C)C)nn1-c1cccc(Cl)c1)c1ccc(NS(C)(=O)=O)c(F)c1` (centres unmarked) [Example 16, N-((3-tert-butyl-1-(3-chlorophenyl)-1H-pyrazol-5-yl)methyl)-2-(3-fluoro-4-(methylsulphonamido)phenyl)propanamide], the inhibitory constant (Ki) is 0.2 nM.

The compound `C[C@H](C(=O)NCc1cc(C(C)(C)C)nn1-c1cccc(Cl)c1)c1ccc(NS(C)(=O)=O)c(F)c1` [Example 17, (S)-N-((3-tert-butyl-1-(3-chlorophenyl)-1H-pyrazol-5-yl)methyl)-2-(3-fluoro-4-(methylsulphonamido)phenyl)propanamide] displayed an inhibition constant Ki of 0.1 nM.
